Measured values taken from patent US5254728A, “Complexes containing S(+)-phenyl alkanoic acids and α-hydroxyalkanoic” (priority 1990, dated 1993).

Experiment: pharmacokinetic and pharmacodynamic behaviour (plasma level, tmax, AUC)
Settings: 150 mg S(+)-ibuprofen

In the case of “S(+)-ibuprofen-L-(+)-lactic acid complex”, the effect onset is reported as “Rapid effect onset”.
